Tests used:
HBV replication = HBV replication inhibition in HepDES19 cells (strand-preferential qPCR)
Experimental: Cells used for toxicity and HBV studies.
HBV replication inhibition studies. HepDES19 cells were seeded in 96-well plates at 4×10^4 cells per well in the absence of tetracycline. Test compounds in a final DMSO concentration of 1% were applied to cells 48 hours after induction of HBV replication and cells were incubated with compounds for 72 hours. Cells were washed in 200 μL of phosphate buffered saline (PBS) and lysed in 150 μL of core lysis buffer (10 mM Tris pH 7.4, 1% Tween20, 150 mM NaCl). Cells were incubated at room temperate on an orbital shaker at 350 rpm for 40 minutes. Cell lysate was transferred to a 96 well polymerase chain reaction (PCR) plate and centrifuged at 3300×g for 5 minutes. The supernatant (50 μL) from the cell lysate was transferred to a 96-well PCR plate and mixed with 20 units of micrococcal nuclease and 100 μM CaCl2. The lysate was incubated for 1 hour at 37° C., and then the nuclease was inactivated at 70° C. for ten minutes. Qiagen protease (0.005 Anson units) was added to the lysate and the mixture was incubated overnight. Qiagen protease was then inactivated at 95° C. for ten minutes.
The crude lysate was used as the template for strand-preferential quantitative polymerase chain reaction (q-PCR) analysis. Quantitative PCR was performed with 40 cycles of 95° C. for 15 s and 60° C. for 1 minute employing the Kappa Probe Force universal PCR master mix.

human RNaseH1 = target: T1, human RNaseH1 (Homo sapiens, UniProt O60930); assay: Biochemical inhibition of human RNaseH1 activity; conditions: Hu RNaseH IC50, Table 3 sulfur compounds
T1 sequence (O60930 1-286): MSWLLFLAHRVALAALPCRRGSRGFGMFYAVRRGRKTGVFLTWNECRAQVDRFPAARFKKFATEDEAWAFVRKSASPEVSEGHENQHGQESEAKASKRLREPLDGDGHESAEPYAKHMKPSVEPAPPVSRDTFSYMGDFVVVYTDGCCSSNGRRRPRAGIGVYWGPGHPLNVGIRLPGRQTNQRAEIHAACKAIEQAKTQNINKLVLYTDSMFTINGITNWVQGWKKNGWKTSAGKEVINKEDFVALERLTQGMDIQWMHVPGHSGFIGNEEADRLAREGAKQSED
Experimental: Biochemical inhibition of human RNaseH1 activity. Quantitative inhibition of the human RNaseH1 in the biochemical assays was assessed using a molecular beacon assay as described previously (Edwards et al., 2017). Recombinant human RNaseH 1 (0.3 μg) was incubated with 100 nM RNA:DNA substrate, 50 mM HEPES pH 8.0, 100 mM NaCl, 2 mM Tris(2-carboxyethyl)phosphine hydrochloride (TCEP), 0.05% Tween20, 5 units of RNaseOut, test compounds (0 to 500 μM), and 5% DMSO in a 100 μL reaction volume. The substrate was formed by annealing a complementary RNA oligonucleotide to a hairpin DNA oligonucleotide to hold the hairpin DNA oligonucleotide in an open conformation. The DNA oligonucleotide has a 5′ fluorescein reporter and a 3′ black hole quencher. […] Reactions were initiated with 5 mM MgCl2 and fluorescence was read using a Synergy HTS multi-mode plate reader at 37° C. […] Quantitative inhibition of the human RNaseH1 in biochemical assays was assessed using a FRET-based RNaseH assay under conditions previously reported for an RNaseH molecular beacon assay (Edwards et al., 2017). […] Cleavage of the RNA strand released the fluorescein from quenching, increasing fluorescence. Reactions were monitored for 90 min at 37° C. in a plate reader and initial reaction rates were calculated. […]

in vitro = conditions: human

SMILES | Therapeutic index (CC50/EC50) for HBV (TI, SI) (HBV replication) | IC50 (human RNaseH1) [µM] | CC50 at 24 h (in vitro) [µM]
CS(=O)(=O)c1cccc(O)c(=O)c1O [compound 387] | 78 | – | –
CC(C)Sc1cccc(O)c(=O)c1O [compound 695] | – | 130 | –
Cc1cc(O)c(=O)c(O)cc1S(=O)(=O)c1ccccc1 [compound 336] | 67 | – | 45.4

Source: US12606529B2, “Sulfur and amide tropolone inhibitors of nucleotidyl transferases and uses therefor” (Saint Louis University, priority 2019, dated 2026)
